# Several values for one entry are separate records, joined by “and”; a condition that tells them apart may be missing. Equal values may be shown once. Only a part is listed here, and it is no random draw. Activity calls are given as the source filed them. Calls come from the whole dose curve; as a rule, active = well fitted activation curve with a large enough effect; inconclusive = small, poorly fitted or top-dose-only effect; inactive = no such curve, though single readings can be large or run the other way.
# Assay: qHTS for Inducers of the Endoplasmic Reticulum Stress Response (ERSR) in Human Glioma: qHTS; note: % of control where 0% means no effect; nearly all actives have a fitted effect of over 35% in size
# Settings: U87-MG GRP78 promoter luciferase reporter, 16 h; active compounds read high
row,SMILES,activation
1,COc1ccccc1CNC(=O)COC(=O)C(O)(c1ccccc1)c1ccccc1,inactive: -2.73%
2,CC(C)/C=N\N=C(\N)N[N+](=O)[O-],inactive: 1.02%
3,CN(C(=O)Cc1ccc(Cl)c(Cl)c1)[C@@H]1CCCC[C@H]1N1CCCC1,inactive: -3.62% and inactive: -0.758%
4,CC1(CBr)Cn2c(nc3ccccc3c2=O)S1 (configuration not stated),inactive: -4.75%
5,CCOP(=O)(NC(=NC(C)c1ccccc1)NC(C)c1ccccc1)OCC (configuration not stated),inactive: -1.08%
6,O=P1(Nc2ccccn2)COc2ccccc2OC1,inactive: -4.36%
7,CCC1=CC2Cc3nc4ccc(Cl)cc4c(N)c3C(C1)C2 (configuration not stated),inactive: -10.7%
8,CCOP(=O)(Nc1ccc(C)cn1)OCC,inactive: -3.45%
9,CN(CCCl)Cc1cc(Cl)c(NC2=NCCN2)c(Cl)c1,inactive: -4.74% and inactive: -1.3% and inactive: -2.91%
10,CC(C)(C)C(=O)NC(Sc1ncccn1)C(Cl)(Cl)Cl (configuration not stated),inactive: -2.87%
11,O=P1(N(CCCl)CCCl)NCCC(C(F)(F)F)O1 (configuration not stated),inactive: 2.61%
12,Clc1n[nH]nc1-c1nn[nH][15n]1,inactive: 2.8%
13,Cc1ccc(S(=O)(=O)N(CCCN)CCCc2c(C)nc(N)[nH]c2=O)cc1,inactive: -3.53%
14,O=P1(Nc2ncccn2)COc2ccccc2OC1,inactive: -3.07%
15,Nc1cccc([As](=O)(O)c2ccccc2)c1,inactive: -0.389%
16,O=[As](O)(c1cccs1)c1cccs1,inactive: -3.07%
17,Cc1ccc(OCC(=O)OC2CN3CCC2CC3)cc1 (configuration not stated),inactive: -5.5%
18,O=P1(Nc2ccc(Br)cn2)COc2ccccc2OC1,inactive: -1.27%
19,NS(=O)(=O)c1cccc(NC(=O)COC(=O)C(O)(c2ccccc2)c2ccccc2)c1,inactive: -1.96%
20,CC1CCC(C(C)C)C(OP(=O)(Nc2ccccn2)c2ccccc2)C1 (configuration not stated),inactive: -8.59%
21,Cc1ccc(C(=O)OC2CN3CCC2CC3)cc1 (configuration not stated),inactive: -3.29%
22,COc1cc([N+](=O)[O-])ccc1[N+](=O)[O-],inactive: -7.78%
23,Cc1nn(-c2ccccc2)c2c1P(=O)(N1CCOCC1)N(C)C(c1ccccc1)=N2 (configuration not stated),inactive: -1.34%
24,CN(C)C1(CNC(=O)c2ccc(S(C)(=O)=O)cc2)CCCCC1,inactive: 1.4%
25,CCCC1OP(=O)(Nc2ccccc2)OCC1CC (configuration not stated),inactive: -1.87%
26,O=C(/C=C/c1ccccc1)OC1CN2CCC1CC2 (configuration not stated),inactive: -3%
27,NC(=O)Nc1ccc([As](=O)(O)O)cc1,inactive: -2.56% and inactive: -0.776% and inactive: -4.37%

# Source: PubChem BioAssay AID602332 (National Center for Advancing Translational Sciences (NCATS), 2012)
